The values below are quoted from earlier work in patent US20250161269A1 (Celmatix Inc., priority 2022, published 2025).

Protein sequences, listed by entry. Tags and fused reporters are not part of them. Residues count along the entry.
UniProt P28335, 33-458: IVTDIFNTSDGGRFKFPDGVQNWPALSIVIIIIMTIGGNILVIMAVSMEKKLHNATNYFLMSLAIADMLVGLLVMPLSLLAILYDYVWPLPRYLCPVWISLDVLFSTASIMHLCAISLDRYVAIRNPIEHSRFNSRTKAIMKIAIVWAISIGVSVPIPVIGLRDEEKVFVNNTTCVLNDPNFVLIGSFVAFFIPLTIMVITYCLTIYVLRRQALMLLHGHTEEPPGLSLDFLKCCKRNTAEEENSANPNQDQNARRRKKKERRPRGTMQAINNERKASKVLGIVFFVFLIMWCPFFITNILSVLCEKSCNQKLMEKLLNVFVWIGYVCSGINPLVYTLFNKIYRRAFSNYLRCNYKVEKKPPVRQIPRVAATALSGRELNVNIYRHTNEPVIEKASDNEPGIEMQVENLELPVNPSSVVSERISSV

The data set has as its target serotonin 5-HT2C receptor (Homo sapiens, UniProt P28335). The settings on record: antagonist; cited from earlier work.

As for `COc1ccc2cccc(CCNC(C)=O)c2c1` [Agomelatine], the Ki is 0.631 µM.

As a reminder, the Ki is a dissociation constant, usually derived from enzyme kinetics or from competition with a known ligand.
